{"source": "patent US5348956A", "about": "“Substituted cyclopropylamino-1,3,5-triazines” (UCB S.A., priority 1991, dated 1994)", "test": "toxicity, Irwin's test", "format": "in vivo", "settings": "i.p.; death of two animals out of three within 48 hours", "description": "The toxicity of the compounds according to the invention has been determined on male NMRI mice by means of the Irwin's test (S. IRWIN, Psychopharmacologia, 13, (1968), 222-257). Progressive doses of the compound to be tested are administered intraperitoneally to groups of three mice until the lethal dose is reached (dose which causes the death of two animals out of three within 48 hours).", "data": [{"smiles": "CNC(=O)Oc1ccc2c(c1)[C@]1(C)CCN(C)[C@@H]1N2C", "note": "[physostigmine, reference compound]", "values": [{"measurement": "Lethal dose", "result": 0.82, "unit": "mg/kg"}]}]}
